From patent US20050038102A1, “Upregulation of type III endothelial cell Nitric Oxide Synthase by HMG-CoA reductase inhibitors” (BRIGHAM AND WOMENS HOSPITAL, priority 1997, published 2005) come the findings set out here.

The test system of the series is human endothelial cell. To be noted: after 36 h.

For the molecule `CC[C@H](C)C(=O)O[C@H]1C[C@@H](C)C=C2C=C[C@H](C)[C@H](CC[C@@H]3C[C@@H](O)CC(=O)O3)[C@H]21` [lovastatin], the concentration causing cytotoxicity is > 50000 µM.
